# Experimental data taken from US20050089495A1, “Transdermal transport of compounds” (priority 2001, published 2005).
# Test: Acute transdermal penetration of 3H-Estradiol and 3H-Estradiol Phosphate in the hairless rat model
smiles,measurement,setting,value
"C[C@]12CC[C@@H]3c4ccc(O)cc4CC[C@H]3[C@@H]1CC[C@@H]2OP(=O)(O)O [EP, Estradiol Phosphate]",amount remaining in the skin,"24 hours after application, individual skin layers analysed",minimal
same,transdermal absorption in comparison to E,"tritiated compounds, 5 μg in carrier cream, FIG. 2",more readily absorbed
